Tests used:
human adenosine A2a = human adenosine A2a (Homo sapiens, UniProt P29274); assay: Eurofins LeadProfilingScreen, adenosine A2a; conditions: 10 μM (binding)
[1] = fraction unbound in plasma, human
[2] = fraction unbound in plasma, rat

Cc1nnc2sc3c(NCc4ccc(C(C)(C)O)cc4)ncnc3c2c1C [Compound 76, 2-[4-[[(3,4-Dimethylpyrimido[4′,5′:4,5]thieno[2,3-c]pyridazin-8-yl)amino]methyl]phenyl]propan-2-ol]
Rat brain: plasma Kp, uu (in vivo DMPK, rat): 0.21 | inhibition of human adenosine A2a (human adenosine A2a): 50% | Human Fu (plasma) [1]: 0.007 | Rat Fu (plasma) [2]: 0.02
